Experimental data taken from patent US7553815B1, “Therapeutic use” (priority 1999, dated 2009).
Where two headings read alike, the source gives them in different places. Marks after values point to notes of the source that are not given here.

Test system: EGFR+ DCIS epithelium
Details: for Median AI, DCIS / Median LI, DCIS: EGFR+ DCIS, ZD1839 10-200 mg/kg gavage from Day 14 (collapsed data)

Q: Which results are given for `COc1cc2ncnc(Nc3ccc(F)c(Cl)c3)c2cc1OCCCN1CCOCC1` [ZD1839, N-(3-chloro-4-fluorophenyl)-7-methoxy-6-(3-morpholinopropoxy)quinazolin-4-amine]?
A: Apoptosis (AI) in ER+/EGFR+ DCIS (Day 14 as printed): 1.5 (IQR 1.3-1.6) %; LI in ER+/EGFR+ DCIS (Day 14 as printed): 4.6 (IQR 3.9-5.2%); Median AI, DCIS (Day 21): 1.47**; Median LI, DCIS (Day 21): 4.6**; Median LI/AI, DCIS (Day 21, ratio of cell turnover): 2.7***; Median AI, DCIS (Day 28): 0.64; Median LI, DCIS (Day 28): 5.1**
